Consider one substance from patent publication US7229825B2, “Double-transfected cell line useful for the identification of transport inhibitors” (Deutches Krebsforschungszentrum Stiftung des Offentlichen …, priority 2001, dated 2007).

The test system of the test is human OATP8 and MRP2 (MDCK-MRP2/OATP8 cells). Briefly: Inhibition of transcellular [3H]BSP transport in MDCK-MRP2/OATP8 cells. The following applies: different concentrations, 1 μM [3H]BSP, 30 min, 37° C. It counts as cell-based.

For the substance HSA: human serum albumin, the “effect on intracellular accumulation of [3H]BSP in MDCK-MRP2/OATP8 cells” value is given as “strongly inhibited” and the “effect on transcellular transport of [3H]BSP in MDCK-MRP2/OATP8 cells” value is “diminished”.
